Columns and labels:
[1] = biological target: T1, recombinant human dopamine transporter (Homo sapiens, UniProt Q01959); experiment: dopamine reuptake inhibition in HEK 293 cells; type: cell-based; conditions: ratio of NE/DA reuptake IC50; selectivity for dopamine over norepinephrine transporter
T1 construct: expressed in transfected cells

Protein sequences, listed by entry. Tags and fused reporters are not part of them.
UniProt Q01959, whole entry: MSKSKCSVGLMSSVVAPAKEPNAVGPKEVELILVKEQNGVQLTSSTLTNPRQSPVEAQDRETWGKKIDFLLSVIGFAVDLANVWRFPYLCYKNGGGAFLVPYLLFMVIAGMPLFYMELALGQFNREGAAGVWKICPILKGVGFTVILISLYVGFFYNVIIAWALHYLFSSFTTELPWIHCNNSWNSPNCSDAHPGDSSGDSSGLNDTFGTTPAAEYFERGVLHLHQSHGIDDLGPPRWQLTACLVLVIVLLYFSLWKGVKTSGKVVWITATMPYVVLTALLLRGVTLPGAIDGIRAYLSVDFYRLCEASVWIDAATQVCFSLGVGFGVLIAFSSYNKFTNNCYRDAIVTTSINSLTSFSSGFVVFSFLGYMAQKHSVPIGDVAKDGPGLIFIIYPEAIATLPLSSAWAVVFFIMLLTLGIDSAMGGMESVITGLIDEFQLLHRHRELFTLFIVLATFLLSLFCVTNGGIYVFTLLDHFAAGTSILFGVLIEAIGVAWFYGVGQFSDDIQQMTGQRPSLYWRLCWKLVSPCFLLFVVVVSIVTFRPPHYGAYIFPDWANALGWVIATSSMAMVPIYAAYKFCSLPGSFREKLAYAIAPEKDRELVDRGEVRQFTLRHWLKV
UniProt P23975, whole entry: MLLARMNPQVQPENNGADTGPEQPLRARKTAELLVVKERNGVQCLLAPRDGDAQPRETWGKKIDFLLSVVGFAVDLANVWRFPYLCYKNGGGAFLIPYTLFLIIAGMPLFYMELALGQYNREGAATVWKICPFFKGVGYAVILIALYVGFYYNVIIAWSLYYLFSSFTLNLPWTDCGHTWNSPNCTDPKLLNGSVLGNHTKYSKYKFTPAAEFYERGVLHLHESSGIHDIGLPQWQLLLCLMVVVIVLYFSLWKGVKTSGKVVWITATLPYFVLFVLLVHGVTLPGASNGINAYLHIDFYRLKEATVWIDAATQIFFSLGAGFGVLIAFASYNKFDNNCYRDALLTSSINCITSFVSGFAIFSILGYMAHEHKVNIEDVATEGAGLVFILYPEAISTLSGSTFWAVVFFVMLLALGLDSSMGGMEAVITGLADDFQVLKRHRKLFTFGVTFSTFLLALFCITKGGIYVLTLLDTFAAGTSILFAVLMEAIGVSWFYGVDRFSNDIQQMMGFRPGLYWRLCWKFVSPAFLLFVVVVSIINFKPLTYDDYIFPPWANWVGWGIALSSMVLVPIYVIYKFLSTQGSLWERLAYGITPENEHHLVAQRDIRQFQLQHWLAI

[2] = biological target: T2, recombinant human norepinephrine transporter (Homo sapiens, UniProt P23975); experiment: cell-based; conditions: RR/SS racemates table; HEK 293 cells; read-out: NOREPINEPHRINE NE REUPTAKE (IC50)
T2 construct: expressed in transfected cells

SMILES: Clc1ccc(C(C2CCCC2)C2CCCCN2)cc1 (single isomer, unassigned) [K]
- NE/DA REUPTAKE [1]: 1.6
- IC50 [2]: 44 ± 18 nM
